Laboratory results taken from US5968513A (priority 1996, dated 1999).
Several values for one entry are separate records, joined by “and”; a condition that tells them apart may be missing. Equal entries are not always repeated. Entries after “also recorded” stand apart in the source; their conditions may differ. Where two headings read alike, the source gives them in different places.

Experiments:
[1] = system: hematopoietic cell proliferation; assay: Comparison of commercial hCG preparations on hematopoietic cell proliferation in vitro and in vivo
Kaposi's sarcoma [2] = assay: Kaposi's sarcoma response of patients treated with hCG preparations; type: in vivo, human; conditions: for KS response described in text: individual patients or patient groups on hCG; for KS response: individual patients, Table 2; for clearance of visceral (lung and gastrointestinal) KS: very advanced disease, systemic therapy, within 1 to 3 months of initiating therapy
[3] = system: Hematopoietic progenitor cells from normal bone marrow and cord blood; assay: Clonogenic (colony) assays of hematopoietic progenitor cells in methylcellulose (CFU-MIX, BFU-e, CFU-GM); type: cell-based, human; conditions: hCG preparations 200 IU/ml, subunits and peptides 100 μg/ml, 10 days, aggregates of more than 50 cells counted
From the text: Hematopoietic progenitor cells (2×10^5 cell/ml) were isolated from normal bone marrow and cord blood and seeded in methylcellulose. […] Aggregates containing more than 50 cells after 10 days of culture were counted as colonies.

SIVmac251 = assay: Effects of hCG preparation in SIV infected rhesus monkeys; type: in vivo, rhesus monkey; conditions: for Weight gain / SIV p27 antigen in plasma / CD4^+ T cells: SIVmac251 infected rhesus monkeys, 3 treated; for Weight gain / CD4^+ T cells: 3,000 IU 2 times weekly; for SIV p27 antigen in plasma: 3,000 IU 2 times weekly (6,000 IU per week) from 3 weeks after inoculation, followed 7 months; for CD4^+ T cells: maintained over 7 months
[4] = hCG weekly dosing in mice; type: in vivo; conditions: 300-500 I.U. weekly
Kaposi's sarcoma [5] = conditions: cited from earlier work; for dose dependent effect, regression of treated KS lesions: California patients (Gill et al., 1996)
[6] = hCG preparation in normal uninfected monkeys (CD4+ T cells, weight); type: in vivo, monkey; conditions: 2 uninfected treated animals, increasing from 460 and from 470; hCG (APL) per FIG. 1D legend
From the text: SIV was given intravenously at a dose of 10^4.5 TCID50 per ml. (A) SIV titer was monitored over time in months by quantifying the p27 gag protein (Organon Teknika assay) as nanograms (ng) of p27/ml of plasma from the plasma of the SIV infected macaques. […] Plasma levels of p27 gag in these treated monkeys are indicated on the graph by lines with diamonds, number (#) signs or filled circles. Results with the untreated SIV-infected macaques (indicated UnRx) are indicated by the lines with either stars or triangles. […] (C) Change in weight in kilograms (kg) was monitored in treated and untreated SIV-infected monkeys over time in months. […] CD4^+ T cell levels in the untreated monkeys are indicated by lines with sun-like figures or squares, and the results in the treated monkeys are indicated by lines with pentagonal figures or with filled inverted triangles.
In FIG. 1D, results are shown from 4 uninfected controls. […] There is a slight increase in the CD4^+ T cells in the treated animals (increasing from 460 mm^3 to 520 mm^3 and from 470 mm^3 to 650 mm^3) (FIG. 1D).

Substance: Pregnyl: commercial hCG preparation Pregnyl, Organon
- relative effectiveness among (non-recombinant) commercial hCG preparations [1]: the next most effective
- KS response described in text (Kaposi's sarcoma [2]): regression of recurrent cutaneous KS
- KS response (Kaposi's sarcoma [2]; listed as P): Stable
- clearance of visceral (lung and gastrointestinal) KS (Kaposi's sarcoma [2]): striking clearance

Substance: hCG (APL): commercially available partially purified hCG preparation APL, Wyeth Ayerst
- growth of hematopoietic progenitors (pro-hematopoietic activity, colony numbers) [3]: directly promoted
- growth of hematopoietic progenitors (pro-hematopoietic activity, colony numbers) ([3]; listed as native partially purified hCG heterodimer): considerable pro-hematopoietic activity
- Weight gain (SIVmac251): 2 to 4 kg
- SIV p27 antigen in plasma (SIVmac251): marked decrease
- CD4^+ T cells (SIVmac251): increase in CD4^+ T cells to normal levels
- evidence of disease or SIV resistance to the hCG preparation (SIVmac251; followed for 7 months): no evidence of disease or SIV resistance
- relative effectiveness among (non-recombinant) commercial hCG preparations ([1]; listed as APL): usually more active
- relative effectiveness among (non-recombinant) commercial hCG preparations ([1]; listed as hCG from APL (Wyeth-Ayerst)): the next most effective
- KS response (Kaposi's sarcoma [2]; listed as A): Stable
- clearance of visceral (lung and gastrointestinal) KS (Kaposi's sarcoma [2]): striking clearance

Substance: hCG from Fujisawa: (non-recombinant) commercial hCG preparation from Fujisawa
- relative effectiveness among (non-recombinant) commercial hCG preparations [1]: the most effective

Substance: Human Chorionic Gonadotropin [hCG]
- effectiveness of weekly hCG doses in monkeys (SIVmac251; 6,000 I.U. weekly): effective
- Weight gain (SIVmac251): weight gain
- SIV p27 antigen in plasma (SIVmac251): reduction of SIV in plasma
- CD4^+ T cells (SIVmac251): increase in CD4^+ T cells
- effectiveness of weekly hCG doses in mice [4]: effective
- dose dependent effect, regression of treated KS lesions (Kaposi's sarcoma [5]; intralesional hCG 250 IU): 16%
- dose dependent effect, regression of treated KS lesions (Kaposi's sarcoma [5]; intralesional hCG 2,000 IU): 83%
- partial or complete regression of treated lesions, patients (Kaposi's sarcoma [5]; low dose intralesional hCG, initial pilot study in Belgium (Hermans et al., 1995)): 3 of the first 4 patients
- CD4^+ T cells after treatment [6]: 520 mm^3 and 650 mm^3
- KS response described in text (Kaposi's sarcoma [2]): responded; also recorded: complete regression; also recorded: exhibited a KS response; also recorded: partial responses; also recorded: did not respond; also recorded: stabilization of pulmonary disease; also recorded: complete response; also recorded: dramatically improved their pulmonary function test; also recorded: regression of KS lesions was observed
- patients with marked responses (Kaposi's sarcoma [2]; of 10 patients with advanced disease treated systemically, 15,000 to 30,000 IU): 6
- additional patients with KS responses by ACTGO criteria (Kaposi's sarcoma [2]; of 15 protocol patients from the Belgium trial): 4
- patients with substantial anti-KS effect / regression of KS disease (Kaposi's sarcoma [2]; systemic protocol 35,000 IU/week, patients followed for more than 4 months): 4 of the 5 patients and 4 of 5 patients

Substance: pure hCG heterodimer (CR127): purified hCG heterodimer CR 127, highly purified hCG preparation
- growth of hematopoietic progenitors (pro-hematopoietic activity, colony numbers) ([3]; listed as highly purified (to homogeneity) hCG heterodimer): no pro-hematopoietic activity
